Tested on: A2780/dx (Pgp+)
Type: cell-based
Details: after 72 hours; concentration that inhibits cell growth by 50% compared with non treated cells; read-out: IC50 (nM) ± S.E. A2780/dx (Pgp+)
Procedure: The activity of the compounds of formula I was evaluated on a large number of tumour cells expressing different resistance.
Cytotoxic activity was evaluated according to the procedure described by M. C.

Row | Substance | IC50 [nM]
1 | 3,5-Benzenedicarboxylic acid bis-(N-deacetylthiocolchicine)amide [E.g. 3] | 922 ± 164
2 | N-Deacetylthiocolchicine 1,4-phenylenediamine bis-urea [E.g. 4] | 3840 ± 224
3 | trans-1,4-Cyclohexanedicarboxylic acid bis-(N-deacetylthiocolchicine)amide [E.g. 2] | 1270 ± 382

From US7582639B2, “N-deacetylthiocolchicine derivatives, their use and pharmaceutical formulations containing them” (priority 2004, dated 2009)
